Test results published in patent US11186582B2, “Substituted [1,2,4]triazolo[1,5-a]pyrimidin-7-yl compounds as PDE2 inhibitors” (DART NEUROSCIENCE (CAYMAN) LTD., priority 2014, dated 2021).

Protein sequences, listed by entry. Tags and fused reporters are not part of them. Residues count along the entry.
UniProt O00408, 2-941: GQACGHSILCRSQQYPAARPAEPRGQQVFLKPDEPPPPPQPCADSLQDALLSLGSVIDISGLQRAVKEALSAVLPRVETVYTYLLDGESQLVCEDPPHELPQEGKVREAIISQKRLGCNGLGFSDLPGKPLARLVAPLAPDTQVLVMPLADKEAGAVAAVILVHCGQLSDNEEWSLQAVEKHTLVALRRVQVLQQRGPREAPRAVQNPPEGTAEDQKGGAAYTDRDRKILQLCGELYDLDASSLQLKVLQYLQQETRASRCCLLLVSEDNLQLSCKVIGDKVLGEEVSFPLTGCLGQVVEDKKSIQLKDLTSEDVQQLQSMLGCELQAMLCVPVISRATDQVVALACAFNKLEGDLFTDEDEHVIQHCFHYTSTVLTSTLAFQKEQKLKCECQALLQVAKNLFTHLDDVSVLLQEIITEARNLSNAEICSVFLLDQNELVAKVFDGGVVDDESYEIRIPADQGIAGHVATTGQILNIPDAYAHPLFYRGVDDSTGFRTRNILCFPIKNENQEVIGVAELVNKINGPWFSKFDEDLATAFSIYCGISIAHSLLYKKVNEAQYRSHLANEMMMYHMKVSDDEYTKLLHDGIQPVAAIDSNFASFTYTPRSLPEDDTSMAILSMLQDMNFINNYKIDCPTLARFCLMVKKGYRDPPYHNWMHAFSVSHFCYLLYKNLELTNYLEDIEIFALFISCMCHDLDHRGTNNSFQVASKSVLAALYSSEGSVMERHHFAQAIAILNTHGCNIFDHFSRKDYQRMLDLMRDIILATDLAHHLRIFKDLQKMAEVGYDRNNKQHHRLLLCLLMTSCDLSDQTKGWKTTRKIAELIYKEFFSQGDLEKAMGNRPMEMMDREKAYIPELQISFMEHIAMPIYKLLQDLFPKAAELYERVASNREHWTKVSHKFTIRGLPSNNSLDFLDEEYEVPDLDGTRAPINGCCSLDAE

The molecules below were run against FLAG-tagged PDE2A1 (amino acids 2-941) (Homo sapiens (Human), UniProt O00408) (assay: IMAP TR-FRET PDE2A phosphodiesterase enzymatic assay). Conditions: not given.

Structure (SMILES)	IC50 [nM]
COc1cccc(CN2CCCC(c3cc(C)nc4ncnn34)C2)c1F (centres unmarked) [Example 81, 1-[(2-Fluoro-3-methoxyphenyl)methyl]-3-{5-methyl-[1,2,4]triazolo[1,5-a]pyrimidin-7-yl}piperidine]	> 10000
Cc1cc(C2CCCN(Cc3cnc(N(C)C)s3)C2)n2ncnc2n1 (centres unmarked) [Example 201, N,N-Dimethyl-5-[(3-{5-methyl-[1,2,4]triazolo[1,5-a]pyrimidin-7-yl}piperidin-1-yl)methyl]-1,3-thiazol-2-amine]	100 to 1000
Cc1cc(C2CCCN(Cc3ccc(-n4cccn4)c(F)c3)C2)n2ncnc2n1 (centres unmarked) [Example 189, 1-{[3-Fluoro-4-(1H-pyrazol-1-yl)phenyl]methyl}-3-{5-methyl-[1,2,4]triazolo[1,5-a]pyrimidin-7-yl}piperidine]	100 to 1000
Cc1cc(C2CCCN(Cc3ccc(Br)c(C)c3)C2)n2ncnc2n1 (centres unmarked) [Example 172, 1-[(4-Bromo-3-methylphenyl)methyl]-3-{5-methyl-[1,2,4]triazolo[1,5-a]pyrimidin-7-yl}piperidine]	100 to 1000
Cc1cc(C2CCCN(C(=O)c3cc(C)nn3C)C2)n2ncnc2n1 (centres unmarked) [Example 411, 1-[(1,3-Dimethyl-1H-pyrazol-5-yl)carbonyl]-3-{5-methyl-[1,2,4]triazolo[1,5-a]pyrimidin-7-yl}piperidine]	100 to 1000
Cc1cc(C2CN(C(=O)c3cccc(C#N)c3)CCO2)n2ncnc2n1 (centres unmarked) [Example 227, 3-[(2-{5-Methyl-[1,2,4]triazolo[1,5-a]pyrimidin-7-yl}morpholin-4-yl)carbonyl]benzonitrile]	1000 to 10000
Cc1cc(C2CCCN(Cc3c(F)cc(Cl)cc3F)C2)n2ncnc2n1 (centres unmarked) [Example 71, 1-[(4-Chloro-2,6-difluorophenyl)methyl]-3-{5-methyl-[1,2,4]triazolo[1,5-a]pyrimidin-7-yl}piperidine]	> 10000
Cc1cc(C2CCCN(Cc3ccc(I)cc3)C2)n2ncnc2n1 (centres unmarked) [Example 173, 1-[(4-Iodophenyl)methyl]-3-{5-methyl-[1,2,4]triazolo[1,5-a]pyrimidin-7-yl}piperidine]	100 to 1000
Cc1cc(C2CCCN(Cc3ccc(F)c(Br)c3)C2)n2ncnc2n1 (centres unmarked) [Example 171, 1-[(3-Bromo-4-fluorophenyl)methyl]-3-{5-methyl-[1,2,4]triazolo[1,5-a]pyrimidin-7-yl}piperidine]	1000 to 10000
Cc1cc(C2CN(C(=O)c3ccc(Cl)c(Cl)c3)CCO2)n2ncnc2n1 (centres unmarked) [Example 364, 4-(3,4-Dichlorobenzoyl)-2-{5-methyl-[1,2,4]triazolo[1,5-a]pyrimidin-7-yl}morpholine]	100 to 1000
COc1cc(F)cc(C(=O)N2CCOC(c3cc(C)nc4ncnn34)C2)c1 (centres unmarked) [Example 555, 4-(3-Fluoro-5-methoxybenzoyl)-2-{5-methyl-[1,2,4]triazolo[1,5-a]pyrimidin-7-yl}morpholine]	1000 to 10000
Cc1cc(C2CN(C(=O)c3cccc(F)c3)CCO2)n2ncnc2n1 (centres unmarked) [Example 215, 4-[(3-Fluorophenyl)carbonyl]-2-{5-methyl-[1,2,4]triazolo[1,5-a]pyrimidin-7-yl}morpholine]	1000 to 10000
Cc1cc(C2CCCN(Cc3ccccc3F)C2)n2ncnc2n1 (centres unmarked) [Example 111, 1-[(2-Fluorophenyl)methyl]-3-{5-methyl-[1,2,4]triazolo[1,5-a]pyrimidin-7-yl}piperidine]	> 10000
COc1cccc(C(=O)N2CCOC(c3cc(C)nc4ncnn34)C2)c1 (centres unmarked) [Example 548, 4-(3-Methoxybenzoyl)-2-{5-methyl-[1,2,4]triazolo[1,5-a]pyrimidin-7-yl}morpholine]	1000 to 10000
Cc1cc(C2CN(C(=O)C3CCc4ccccc4O3)CCO2)n2ncnc2n1 (centres unmarked) [Example 564, 4-(3,4-Dihydro-2H-1-benzopyran-2-carbonyl)-2-{5-methyl-[1,2,4]triazolo[1,5-a]pyrimidin-7-yl}morpholine]	100 to 1000
Cc1ccc(CN2CCCC(c3cc(C)nc4ncnn34)C2)c(C)n1 (centres unmarked) [Example 52, 2,6-Dimethyl-3-[(3-{5-methyl-[1,2,4]triazolo[1,5-a]pyrimidin-7-yl}piperidin-1-yl)methyl]pyridine]	> 10000
COc1c(F)cccc1C(=O)N1CCCC(c2cc(C)nc3ncnn23)C1 (centres unmarked) [Example 468, 1-[(3-Fluoro-2-methoxyphenyl)carbonyl]-3-{5-methyl-[1,2,4]triazolo[1,5-a]pyrimidin-7-yl}piperidine]	1000 to 10000
COc1ccc(C(=O)N2CCCC(c3cc(C)nc4ncnn34)C2)cn1 (centres unmarked) [Example 386, 2-Methoxy-5-[(3-{5-methyl-[1,2,4]triazolo[1,5-a]pyrimidin-7-yl}piperidin-1-yl)carbonyl]pyridine]	100 to 1000
COc1ccc(C(=O)N2CCCC(c3cc(C)nc4ncnn34)C2)c(F)c1 (centres unmarked) [Example 415, 1-[(2-Fluoro-4-methoxyphenyl)carbonyl]-3-{5-methyl-[1,2,4]triazolo[1,5-a]pyrimidin-7-yl}piperidine]	100 to 1000
Cc1cc(C2CCCN(Cc3nc4ccccc4n3C)C2)n2ncnc2n1 (centres unmarked) [Example 107, 1-Methyl-2-[(3-{5-methyl-[1,2,4]triazolo[1,5-a]pyrimidin-7-yl}piperidin-1-yl)methyl]-1H-1,3-benzodiazole]	> 10000
Cc1cc(C2CCCN(Cc3cnc(N4CCOCC4)s3)C2)n2ncnc2n1 (centres unmarked) [Example 198, 4-{5-[(3-{5-Methyl-[1,2,4]triazolo[1,5-a]pyrimidin-7-yl}piperidin-1-yl)methyl]-1,3-thiazol-2-yl}morpholine]	1000 to 10000
Cc1cc(F)cc(CN2CCCC(c3cc(C)nc4ncnn34)C2)c1 (centres unmarked) [Example 95, 1-[(3-Fluoro-5-methylphenyl)methyl]-3-{5-methyl-[1,2,4]triazolo[1,5-a]pyrimidin-7-yl}piperidine]	100 to 1000
Cc1cc(C2CCCN(Cc3ccc(Cl)c(C)c3)C2)n2ncnc2n1 (centres unmarked) [Example 165, 1-[(4-Chloro-3-methylphenyl)methyl]-3-{5-methyl-[1,2,4]triazolo[1,5-a]pyrimidin-7-yl}piperidine]	100 to 1000
Cc1cc(C2CN(C(=O)c3cccc(S(F)(F)(F)(F)F)c3)CCO2)n2ncnc2n1 (centres unmarked) [Example 261, 2-{5-Methyl-[1,2,4]triazolo[1,5-a]pyrimidin-7-yl}-4-{[3-(pentafluorosulfanyl)phenyl]carbonyl}morpholine]	1000 to 10000
COc1cc(Cl)ccc1CN1CCCC(c2cc(C)nc3ncnn23)C1 (centres unmarked) [Example 62, 1-[(4-Chloro-2-methoxyphenyl)methyl]-3-{5-methyl-[1,2,4]triazolo[1,5-a]pyrimidin-7-yl}piperidine]	> 10000
Cc1cc(C2CCCN(Cc3ccccn3)C2)n2ncnc2n1 (centres unmarked) [Example 54, 2-[(3-{5-Methyl-[1,2,4]triazolo[1,5-a]pyrimidin-7-yl}piperidin-1-yl)methyl]pyridine]	> 10000
Cc1cc([C@H]2CN(C(=O)c3ccc(C(F)(F)F)c(Br)c3)CCO2)n2ncnc2n1 [Example 337, (2R)-4-[3-Bromo-4-(trifluoromethyl)benzoyl]-2-{5-methyl-[1,2,4]triazolo[1,5-a]pyrimidin-7-yl}morpholine]	> 10000

Same assay, conditions: IMAP TR-FRET, 200 nM FAM-cAMP substrate, 11-point half-log dose-response

Structure (SMILES)	PDE2 (pIC50)
Cc1cc([C@H]2CCCN(C(=O)[C@@H]3COc4ccccc4C3)C2)n2ncnc2n1 [Example 335, (3S)-1-[(3S)-3,4-Dihydro-2H-1-benzopyran-3-carbonyl]-3-{5-methyl-[1,2,4]triazolo[1,5-a]pyrimidin-7-yl}piperidine]	>7
COc1ccc(C(=O)N2CCOC(c3cc(C)nc4ncnn34)C2)cc1C (centres unmarked) [Example 547, 4-(4-Methoxy-3-methylbenzoyl)-2-{5-methyl-[1,2,4]triazolo[1,5-a]pyrimidin-7-yl}morpholine]	>7
Cc1cc([C@@H]2CN(C(=O)c3ccc4occc4c3)CC(F)(F)C2)n2ncnc2n1 [Example 341, (5S)-1-(1-Benzofuran-5-carbonyl)-3,3-difluoro-5-{5-methyl-[1,2,4]triazolo[1,5-a]pyrimidin-7-yl}piperidine]	>7
Cc1cc(C2CN(C(=O)c3cc(Cl)cc(Br)c3)CCO2)n2ncnc2n1 (centres unmarked) [Example 291, 4-[(3-Bromo-5-chlorophenyl)carbonyl]-2-{5-methyl-[1,2,4]triazolo[1,5-a]pyrimidin-7-yl}morpholine]	>7
Cc1cc(C2CN(C(=O)c3ccn(-c4cccc(Br)c4)n3)CCO2)n2ncnc2n1 (centres unmarked) [Example 382, 4-[1-(3-Bromophenyl)-1H-pyrazole-3-carbonyl]-2-{5-methyl-[1,2,4]triazolo[1,5-a]pyrimidin-7-yl}morpholine]	>7
Cc1cc([C@@H]2CN(C(=O)c3ccc(C4CC4)c(F)c3F)CC(F)(F)C2)n2ncnc2n1 [Example 322, (5S)-1-(4-Cyclopropyl-2,3-difluorobenzoyl)-3,3-difluoro-5-{5-methyl-[1,2,4]triazolo[1,5-a]pyrimidin-7-yl}piperidine]	>7
Cc1cc(C2CCCN(Cc3ccc(Br)c(F)c3)C2)n2ncnc2n1 (centres unmarked) [Example 139, 1-[(4-Bromo-3-fluorophenyl)methyl]-3-{5-methyl-[1,2,4]triazolo[1,5-a]pyrimidin-7-yl}piperidine]	>7
COc1cc2ccccc2cc1C(=O)N1CCOC(c2cc(C)nc3ncnn23)C1 (centres unmarked) [Example 552, 4-(3-Methoxynaphthalene-2-carbonyl)-2-{5-methyl-[1,2,4]triazolo[1,5-a]pyrimidin-7-yl}morpholine]	>7
Cc1cc(C2CCCN(Cc3cnc(-c4ccccc4)s3)C2)n2ncnc2n1 (centres unmarked) [Example 109, 3-{5-Methyl-[1,2,4]triazolo[1,5-a]pyrimidin-7-yl}-1-[(2-phenyl-1,3-thiazol-5-yl)methyl]piperidine]	>7
Cc1cc(C2CN(C(=O)c3nc4ccccc4s3)CC(F)(F)C2)n2ncnc2n1 (centres unmarked) [Example 529, 2-(3,3-Difluoro-5-{5-methyl-[1,2,4]triazolo[1,5-a]pyrimidin-7-yl}piperidine-1-carbonyl)-1,3-benzothiazole]	>7
Cc1cc(C2CCCN(C(=O)C3CCc4cc(F)ccc4O3)C2)n2ncnc2n1 (centres unmarked) [Example 355, 1-[(6-Fluoro-3,4-dihydro-2H-1-benzopyran-2-yl)carbonyl]-3-{5-methyl-[1,2,4]triazolo[1,5-a]pyrimidin-7-yl}piperidine]	>7
